Test results published in patent US12653859B2, “Peptides and medical uses thereof” (Anbition S.R.L., priority 2018, dated 2026).

Sequences of proteins named here, by UniProt entry; tags and fusion partners are left off. Residues count along the entry.
UniProt P17948, 27-758 limits assumed: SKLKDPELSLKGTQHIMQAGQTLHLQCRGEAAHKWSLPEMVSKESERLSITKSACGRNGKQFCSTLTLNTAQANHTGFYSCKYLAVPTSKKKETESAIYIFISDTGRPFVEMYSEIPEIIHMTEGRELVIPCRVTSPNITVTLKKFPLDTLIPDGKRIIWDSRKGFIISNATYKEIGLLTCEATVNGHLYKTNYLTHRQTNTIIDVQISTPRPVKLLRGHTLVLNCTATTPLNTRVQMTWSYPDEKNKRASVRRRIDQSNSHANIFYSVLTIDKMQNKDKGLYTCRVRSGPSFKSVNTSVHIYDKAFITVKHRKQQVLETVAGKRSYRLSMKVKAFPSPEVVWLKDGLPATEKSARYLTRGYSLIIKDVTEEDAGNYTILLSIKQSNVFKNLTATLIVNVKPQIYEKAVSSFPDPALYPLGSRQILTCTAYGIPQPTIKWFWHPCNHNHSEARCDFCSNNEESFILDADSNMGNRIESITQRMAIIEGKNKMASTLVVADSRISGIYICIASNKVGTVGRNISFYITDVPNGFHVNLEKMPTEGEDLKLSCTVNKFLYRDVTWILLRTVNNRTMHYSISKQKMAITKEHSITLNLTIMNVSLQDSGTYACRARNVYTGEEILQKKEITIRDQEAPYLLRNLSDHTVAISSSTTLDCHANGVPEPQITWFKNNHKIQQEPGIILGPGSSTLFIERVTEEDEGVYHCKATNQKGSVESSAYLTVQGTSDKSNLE

molecular target: T1, VEGF-A/VEGFR-1 interaction (Homo sapiens, UniProt P17948); experiment: ELISA competition assay of VEGF-A binding to VEGFR-1; settings: tetrameric peptides of formula (II) with Y2 different from D-cysteine; read-out: IC50 of inhibition of the interaction VEGF-A/VEGFR-1
T1 construct: the form consisting of the seven extracellular domains of the receptor fused to the Fc domain of human IgG; purchased R&D Systems 321-FL (receptor); 293-VE (VEGF-A)
Procedure: The binding reaction was conducted for one hour at 37° C., followed by one hour at room temperature. At the end of the binding and/or competition step, anti-human-PIGF biotinylated polyclonal antibodies (R&D Systems, cat No. BAF264) or anti-human-VEGF-A (R&D Systems, cat No. BAF293) were added to the wells at the concentration of 300 ng/ml in PBET. After one hour of incubation at 37° C. followed by one hour at room temperature, an HRP-conjugated avidin-streptavidin system (Vectastain elite ABC kit) and a substrate for HRP (o-phenylenediamine-Sigma, cat No. P1526) were added to the wells. Quantization was performed by determining the absorbance at 490 nm. Any inhibitory activity of the peptides was expressed in terms of % of residual binding, comparing the data obtained for the binding of PIGF or VEGF-A to the receptors in the presence of the tetrameric peptides with those in the absence of the same. iVR1 represented the positive control of the inhibition of the PIGF/VEGFR-1 or VEGF-A/VEGFR-1 interaction.

| Substance | IC50 |
| --- | --- |
| L-threonine | 1290 ± 500 nM |
| L-methionine sulfoxide | 15700 ± 2100 nM |
| D-threonine | 2600 ± 600 nM |
| L-methionine | 2150 ± 1000 nM |
